# Legend:
# Homo sapiens [1] = organism: Homo sapiens; assay: Ratio for affinity of Opioid receptor delta 1 to that of opioid receptor like 1
# Homo sapiens [2] = organism: Homo sapiens; assay: Ratio for affinity of opioid receptor kappa 1 to that of opioid receptor like 1
smiles,measurement,setting,value
COc1ccc(C)c(OC(CCN2CCC(n3c(=O)[nH]c4ccccc43)CC2)C(C)C)c1 (configuration not stated) [ORGANON],Ratio,Homo sapiens [1],191
same,Ratio,Homo sapiens [2],25

# From ChEMBL document CHEMBL1144273, “Synthesis and SAR studies of 3-phenoxypropyl piperidine analogues as ORL1 (NOP) receptor agonists” (Bioorg Med Chem Lett, 2005)
